Measurements taken from ChEMBL document CHEMBL5376007, “Discovery of Novel PD-L1 Inhibitors That Induce the Dimerization, Internalization, and Degradation of PD-L1 Based on the Fragment Coupling Strategy” (J Med Chem, 2023).

System: MDA-MB-231
Experiment: Antitumor activity against human MDA-MB-231 cells cocultured with CD3/CD28/CD2 T cell activator stimulated human PBMC cells assessed as increase in tumor cell viability incubated for 12 hrs by LDH assay
Assay type: functional, cell-based

## COc1nc(O[C@H]2CCc3c(-c4cccc(C(=O)Nc5ccc(CNC[C@@H]6CCC(=O)N6)cn5)c4Cl)cccc32)c(Cl)cc1CNC[C@@H]1CCC(=O)N1
  Activity: Dose-Dependent Effect
